Laboratory results as given in US20220265619A1, “COMBINATION TREATMENT OF LIVER DISEASES USING FXR AGONISTS” (Novartis AG, priority 2019, published 2022).

How the values were obtained:
[1] = FLIGHT-FXR (NCT02855164) Part C interim analysis, tropifexor in fibrotic NASH; format: in vivo, human; conditions: for Relative change in HFF (MRI-PDFF), LS mean (SE), baseline to Week 12: placebo −10.26 (4.21); for patients achieving relative HFF reduction by ≥30% (without imputation for missing values): week 12 (placebo 20%)
From the text: FLIGHT-FXR (NCT02855164) is a phase 2 randomized, double blind, placebo-controlled, 3-part, adaptive-design study to assess the safety, tolerability, and efficacy of several doses of tropifexor (LJN452) in patients with non-alcoholic steatohepatitis (NASH). • METHODS: In Part C, the effects of higher doses of tropifexor on biomarkers and histology will be evaluated over 48 weeks in patients with biopsy-proven NASH and fibrosis stages 2-3. In all, 152 patients (64% females) were randomized to receive placebo (N=51), tropifexor 140 μg (N=50) or tropifexor 200 μg (N=51) once daily. Pre-specified endpoints assessed at week 12 included overall safety and changes in alanine aminotransferase (ALT), hepatic fat fraction (HFF), gamma glutamyl transferase (GGT), and body weight. • RESULTS: Pre-specified endpoints were met for tropifexor at a dose of 200 μg.

[2] = Tropifexor in NASH patients, Parts A and B of study CLJN452A2202; conditions: 60 and 90 μg

## O=C(O)c1cc(F)c2nc(N3C4CC[C@H]3CC(OCc3c(-c5ccccc5OC(F)(F)F)noc3C3CC3)C4)sc2c1 (stereo partly drawn) [tropifexor, 2-[(1R,3r,5S)-3-({5-cyclopropyl-3-[2-(trifluoromethoxy)phenyl]-1,2-oxazol-4-yl}methoxy)-8-azabicyclo[3.2.1]octan-8-yl]-4-fluoro-1,3-benzothiazole-6-carboxylic acid]
[1]; 140 μg once daily, n = 49, P = 0.209
  Relative change in HFF (MRI-PDFF), LS mean (SE), baseline to Week 12: −16.99 (4.64) %
[1]; 140 μg
  patients achieving relative HFF reduction by ≥30% (without imputation for missing values): 32%
[1]; 200 μg once daily, n = 51, P < 0.001
  Relative change in HFF (MRI-PDFF), LS mean (SE), baseline to Week 12: −31.37 (4.30) %
[1]; 200 μg
  patients achieving relative HFF reduction by ≥30% (without imputation for missing values): 64%
[2]
  efficacy based on biomarkers and safety at Week 12: anti-inflammatory and anti-steatotic efficacy
